Measurements taken from patent US20240009204A1 (Starton Therapeutics, Inc., priority 2020, published 2024).

Columns and labels:
[1] = test system: healthy female volunteers
[2] = 4 mg a day minimum dose equivalent

Cc1cc2c(s1)Nc1ccccc1N=C2N1CCN(C)CC1 [olanzapine, 2-methyl-10-(4-methyl-1-piperazinyl)-4H-thieno-[2,3-b][1.5]benzo-diazepine]
Sedation severity scores on day 1, versus placebo ([1]; all oral doses (2, 4, 6, 8 mg), 1=no sedation, 10=severe sedation): significantly different (higher sedation) than placebo | dose dependence of sedation in the first day of dosing ([1]; oral 2-8 mg a day): NOT dose dependent | target steady state blood level (mid-point of range) [2]: 13 µg/L
